Here are results for 1 compound from article PMC7823355, “Pretreatment Effect of Inflammatory Stimuli and Characteristics of Tryptophan Transport on Brain Capillary Endothelial (TR-BBB) and Motor Neuron Like (NSC-34) Cell Lines” (Biomedicines, 2020).

The chains behind the UniProt entries cited, without tags or fusion partners. Where a name states a change or a piece, a line headed by the entry shows the natural chain unless it says otherwise.
UniProt Q63016: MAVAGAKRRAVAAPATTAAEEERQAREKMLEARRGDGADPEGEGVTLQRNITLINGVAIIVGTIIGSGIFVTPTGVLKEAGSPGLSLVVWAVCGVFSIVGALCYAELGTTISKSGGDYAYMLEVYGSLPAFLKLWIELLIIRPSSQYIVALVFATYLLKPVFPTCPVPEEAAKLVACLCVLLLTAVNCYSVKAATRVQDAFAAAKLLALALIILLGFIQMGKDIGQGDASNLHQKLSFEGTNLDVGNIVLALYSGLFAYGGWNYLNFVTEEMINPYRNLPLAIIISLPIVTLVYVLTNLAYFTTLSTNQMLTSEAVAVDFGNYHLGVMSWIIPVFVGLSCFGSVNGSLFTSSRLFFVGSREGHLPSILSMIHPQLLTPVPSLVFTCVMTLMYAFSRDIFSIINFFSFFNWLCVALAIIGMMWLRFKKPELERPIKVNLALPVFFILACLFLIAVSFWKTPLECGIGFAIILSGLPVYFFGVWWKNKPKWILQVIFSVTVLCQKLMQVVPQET

The assay concerns the target T1, LAT1 (L-type amino acid transporter 1) (Rattus norvegicus, UniProt Q63016).
T1 construct: gene Slc7a5; endogenous LAT1 in TR-BBB cells
Nature of the assay: radiolabelled uptake kinetics (Km) in TR-BBB cells, with LAT1 siRNA knockdown. The format is cell-based.

In general, Km refers to the substrate concentration at which the rate is half of its maximum. `N[C@@H](Cc1c[nH]c2ccccc12)C(=O)O` [L-tryptophan]: the Km was found to be 121 ± 11 µM.
